Measurements taken from PubChem BioAssay AID373 (The Scripps Research Institute Molecular Screening Center, 2006).
Only a part is listed here, and it is no random draw. The source made the active and inactive calls.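 The calls were made as follows: active = activation above the screen-wide mean plus 3 SD (cut at about 4.5% in these data, passing the limit was not always enough); inactive = the rest, inconclusive results apart.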

Chains of the proteins cited; added tags and fusions are not shown. Lines headed by an entry give the natural chain unless they say otherwise; changes in a name come on top.
UniProt Q99500: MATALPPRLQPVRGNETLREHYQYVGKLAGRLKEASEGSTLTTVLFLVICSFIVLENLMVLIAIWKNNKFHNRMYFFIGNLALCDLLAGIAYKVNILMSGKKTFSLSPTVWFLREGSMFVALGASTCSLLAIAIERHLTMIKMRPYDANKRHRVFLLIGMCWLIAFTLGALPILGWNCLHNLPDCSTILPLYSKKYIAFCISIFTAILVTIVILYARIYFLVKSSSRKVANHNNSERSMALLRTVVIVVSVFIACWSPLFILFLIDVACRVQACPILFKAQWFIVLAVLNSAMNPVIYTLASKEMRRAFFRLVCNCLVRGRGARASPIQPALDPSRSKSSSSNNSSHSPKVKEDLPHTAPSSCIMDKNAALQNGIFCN

What follows are molecules tested against Sphingosine 1-phosphate receptor 3 (Homo sapiens) (UniProt Q99500) (assay: human S1P3 receptor agonists, primary screen, cell-based, primary and confirmation, NFAT-BLA reporter (AID 373)). Details: S1P3 NFAT-BLA reporter cells, agonism, FRET ratio; at 4.5 µM; stronger effect = higher value; relative to 1 µM S1P, basal subtracted.

SMILES	activation
O=P(Nc1nccs1)(c1ccccc1)c1ccccc1	inactive: -0.8%
c1nnnn1CCn1cnnn1	inactive: -1.3%
O=C(OC1CN2CCC1CC2)c1cccc(Cl)c1 (centres undefined)	inactive: -0.8%
O=P1(Nc2nc3ccc(Cl)cc3s2)COc2ccccc2O1 (centres undefined)	inactive: -0.9%
Cc1c2non([O-])c-2c(C)[n+](=O)[n+]1[O-]	inactive: -2.3%
CCc1nc2c(n1)c1c(non1O)c1c2no[n+]1[O-]	inactive: -2.1%
COP1(=S)c2c(C)nn(CCC#N)c2N=C(c2ccc(F)cc2)N1C (centres undefined)	inactive: -0.9%
O=C(COc1ccccc1)OC1CN2CCC1CC2 (centres undefined)	inactive: -1.2%
O=C(OC1CN2CCC1CC2)C12CC3CC(CC(C3)C1)C2 (centres undefined)	inactive: -0.8%
Cc1cccc(OCC(=O)OC2CN3CCC2CC3)c1 (centres undefined)	inactive: -2.4%
CCOP1(=S)c2c(C)nn(CCC#N)c2N=C(c2ccc(F)cc2)N1C (centres undefined)	inactive: -0.1%
O=P(Nc1nccs1)(c1ccccc1)c1nc2ccccc2s1 (centres undefined)	inactive: -0.5%
CCOP1(=S)c2c(C)nn(CCC#N)c2N=C(c2ccccc2F)N1C (centres undefined)	inactive: -0.9%
O=P1(Nc2ncccn2)COc2ccccc2OC1	inactive: -0.1%
Cc1ccc(OCC(=O)OC2CN3CCC2CC3)cc1 (centres undefined)	inactive: -0.9%
O=P1(Nc2ccc(Br)cn2)COc2ccccc2OC1	inactive: 1%
Cc1nn(-c2ccccc2)c2c1P(=O)(N1CCOCC1)N(C)C(c1ccccc1)=N2 (centres undefined)	inactive: 0.1%
O=P1(Nc2ccccn2)COc2ccccc2OC1	inactive: 0%
Clc1n[nH]nc1-c1nn[nH][15n]1	inactive: -0.2%
